Tests used:
[1] = system: MC38-h-HER2; experiment: Tumor inhibitory activity, MC38-h-HER2 subcutaneous model (Example 12); type: in vivo, h-4-1BB KI C57 mice; conditions: intraperitoneal injection, Q3d × 2, equivalent molar dose (3-3.6 mg/kg; combination 1.8+1.8 mg/kg)
Procedure: In this experiment, the antitumor activity of the multi-specific antibodies of the present invention was evaluated in a tumor model using h-4-1BB KI C57 mice that were subcutaneously inoculated with MC38-h-HER2.
First, a tumor-bearing mouse model was established through subcutaneous inoculation of MC38-h-HER2 cells. […] The changes in tumor volume and body weight of mice in each group were monitored every 3-6 days/time for a duration of 2-3 weeks. The dosage and administration schedule were outlined in Table 10.

[2] = system: CT26-h-HER2; experiment: Tumor inhibitory activity, CT26-h-HER2 subcutaneous model (Example 11); type: in vivo, h-4-1BB KI BALB/c mice; conditions: intraperitoneal injection, Q2d × 4, equivalent molar dose (3-3.6 mg/kg; combinations 3+3 or 1.8+1.8 mg/kg), tumor start about 180 mm^3
Procedure: In this experiment, the antitumor activity of the multi-specific antibodies of the present invention was evaluated in a tumor model using h-4-1BB KI BALB/c mice that was inoculated subcutaneously with CT26-h-HER2.
First, a tumor-bearing mouse model was established through subcutaneous inoculation of h-HER2 CT26 cells. […] The changes in tumor volume and body weight of mice in each group were monitored every 2-3 days/time for a duration of 2-3 weeks.

Enhertu: Enhertu (DS8201), comparator in the tumor models
tumor regression (in words) [1]: complete tumor regression
TGI [2]: 47.7%
